{"source": "paper PMC10286459", "about": "“The development of an anti-cancer peptide M1-21 targeting transcription factor FOXM1” (Cell & Bioscience, 2023)", "system": "MDA-MB-231 cells", "experiment": "Half-life of biotin-labeled peptides in living cells (Western blotting)", "assay_type": "in vitro ADME, human", "settings": "biotin-labeled peptide 20 µM for 2 h, then fresh medium, cells collected 0-48 h, β-actin loading control", "method": "SDS-PAGE gel electrophoresis and Coomassie brilliant blue staining were performed to measure peptide stability. […] Cells were collected at different post-treatment time points (0, 1, 2, 4, 8, 16, 24, 36, 48 h). […] D The docking of peptide P22 (106–126) to the FOXM1 C-terminus (PDB ID 6OSW) was created by Rosetta FlexPepDock and PyMOL. Left, the interface of peptide-protein interaction, the peptide was shown in cyan, and the C-terminus of FOXM1 was shown according to its electrostatic potential. Right, hydrogen bonds are formed by residues at the interface of peptide and protein interaction. […] Streptavidin magnetic beads were added to lysates to pull down the biotin-peptides/protein complexes. […] M1-21mut was used as the control."}
{"smiles": "CC[C@@H](C)[C@@H](NC(=O)[C@@H](CC(C)C)NC(=O)[C@H](NC(=O)[C@@H](CO)NC(=O)[C@@H](CS)NC(=O)CNC(=O)CNC(=O)[C@@H](C)NC(=O)[C@H]1CCCN1C(=O)[C@H](NC(=O)[C@@H](CCC(N)=O)NC(=O)[C@H]1CCCN1C(=O)[C@H]1CCCN1C(=O)CNC(=O)[C@@H](CC(C)C)NC(=O)[C@@H](CCCNC(=N)N)NC(=O)[C@H]1CCCN1C(=O)[C@@H](CCC(N)=O)NC(=O)[C@H](NC(=O)[C@H](N)CCC(N)=O)[C@H](C)O)[C@H](C)O)[C@H](C)CC)C(=O)N[C@H](Cc1ccccc1)C(=O)N[C@H](CCCNC(=N)N)C(=O)N[C@H](CCCNC(=N)N)C(=O)N[C@H](CCCNC(=N)N)C(=O)N[C@H](CCC(N)=O)C(=O)N[C@H](CCCNC(=N)N)C(=O)N[C@H](CCCNC(=N)N)C(=O)N[C@H](CCCCN)C(=O)N[C@H](CCCCN)C(=O)N[C@H](CCCNC(=N)N)C(=O)NCC(=O)O", "note": "[M1-21]", "values": [{"measurement": "Half-life in living MDA-MB-231 cells", "result": 11.5, "unit": "h"}]}
